Assay results as given in PMC4078735 (2013).

Assays:
[1] = pig, PAMPA, pH 7.4
[2] = PAMPA
[3] = PAMPA, pH 7.4
[4] = PAMPA, pH 7.4; remark: listed apart in the source

buprenorphine
Permeability (Log Pe, cm/sec) Porcine polar brain lipid (PBL) [1]: −3.92 ± 0.43 cm/sec | Ability to cross the dodecane barrier [2]: unable to cross the barrier | Permeability (Log Pe, cm/sec) Microvessel lipid (MVL) [3]: −1.59 ± 0.13 cm/sec | Permeability (Log Pe, cm/sec) Microvessel lipid + cholesterol (MVLC) [4]: −3.03 ± 0.28 cm/sec
